In patent US9095560B2, “Method of enhancing transdermal absorption using a composition comprising POE octyl dodecyl ether and squalane” (JAPAN SCIENCE AND TECHNOLOGY AGENCY, priority 2005, dated 2015):

Assay: Concentration of insulin in blood after application (Example 5)
Format: in vivo, Wistar rats
Conditions: after the initial phase; FIG. 5
Experimental: Lyotropic liquid crystal compounded with 0.5%, 1% and 3% (by weight) of insulin (the lyotropic liquid crystal itself was a product prepared by the step 2 of Example 1) was prepared and concentration of insulin in blood was measured by the same manner as in Example 1. As a comparative example, 0.2 mg/200 μL of insulin was hypodermically injected and concentration of insulin in blood was measured. Incidentally, (A) to (D) in FIG. 5 are as follows.

## insulin
  concentration of insulin in blood thereafter: quickly decreased
